The values that follow are results of earlier work, collected in patent publication US20230265432A1, “METHODS AND COMPOSITIONS FOR TREATING ACUTE MYELOID LEUKEMIA” (Sanford Burnham Prebys Medical Discovery Institute, priority 2021, published 2023).

Sequences of proteins named here, by UniProt entry; tags and fusion partners are left off.
UniProt Q92993, whole entry, species assumed: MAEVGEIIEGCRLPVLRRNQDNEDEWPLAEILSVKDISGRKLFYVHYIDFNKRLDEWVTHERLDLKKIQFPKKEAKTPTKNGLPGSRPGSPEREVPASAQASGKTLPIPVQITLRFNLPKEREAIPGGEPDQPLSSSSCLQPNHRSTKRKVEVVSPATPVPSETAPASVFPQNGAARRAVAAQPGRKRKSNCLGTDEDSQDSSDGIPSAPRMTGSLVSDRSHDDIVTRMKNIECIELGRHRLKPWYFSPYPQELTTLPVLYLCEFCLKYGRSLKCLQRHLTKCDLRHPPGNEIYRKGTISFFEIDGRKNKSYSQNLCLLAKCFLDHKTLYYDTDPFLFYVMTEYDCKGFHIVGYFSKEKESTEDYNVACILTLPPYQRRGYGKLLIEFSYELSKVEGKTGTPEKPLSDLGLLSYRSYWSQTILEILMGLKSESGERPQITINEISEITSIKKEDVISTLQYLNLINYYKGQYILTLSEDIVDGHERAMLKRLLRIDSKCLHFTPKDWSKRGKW

Common to all, as to details: cited from earlier work
One data set deals with BET proteins.
The next data set deals with Tip60 (Homo sapiens, UniProt Q92993).
In a further data set the test system is BD2.

For the compound `CCNC(=O)C[C@@H]1N=C(c2ccc(Cl)cc2)c2cc(OC)ccc2-n2c(C)nnc21` [I-BET-762], the IC50 (usually the concentration that inhibits the measured activity by half) in the data set with BET proteins was about 35 nM.
Regarding `CCCCCCCc1ccc(CCc2cccc(O)c2C(=O)O)cc1` [MG149], the half-inhibitory concentration (IC50) at Tip60 is 74000 nM.
Take `COc1cc(OC)c2c(=O)[nH]c(-c3cc(C)c(OCCO)c(C)c3)nc2c1` [RVX-208]: the half-maximal inhibitory concentration (IC50) in the data set on BD2 was 510 nM.
